Source: US8158372B2, “Agonists of a bitter taste receptor and uses thereof” (Deutsches Institut für Ernährungsforschung Potsdam-Rehbrücke, priority 2004, dated 2012)

Chains of the proteins cited; added tags and fusions are not shown. Lines headed by an entry give the natural chain unless they say otherwise; changes in a name come on top.
UniProt Q9NYV8: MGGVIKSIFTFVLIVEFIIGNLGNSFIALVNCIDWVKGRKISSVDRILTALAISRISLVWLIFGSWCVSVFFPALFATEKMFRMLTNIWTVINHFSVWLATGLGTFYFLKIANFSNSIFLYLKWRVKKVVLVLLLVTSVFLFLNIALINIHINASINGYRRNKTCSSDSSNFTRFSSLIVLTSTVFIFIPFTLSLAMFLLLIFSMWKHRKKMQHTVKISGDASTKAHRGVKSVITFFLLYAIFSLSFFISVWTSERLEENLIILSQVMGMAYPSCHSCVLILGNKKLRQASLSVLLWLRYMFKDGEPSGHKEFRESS

Molecular target: hTAS2R14 (Homo sapiens, UniProt Q9NYV8)
Assay: hTAS2R14 ligand screening, FLIPR calcium assay in transfected HEK-293T Gα16gust44 cells
Conditions: conc 500 μM

D-(+)-sucrose octaacetate was tested, and the response was “n.r”.
